## AlphaSeq binding of Ab-14 heavy chain variants to a spike HR2 peptide

Target: peptide PDVDLGDISGINAS, taken from heptad repeat 2 (HR2) of SARS-CoV-2 spike.

Parent scFv Ab-14: VH joined to VL by a 15-residue (Gly4Ser)3 linker. Changes lie in the heavy chain CDRs alone.
VH: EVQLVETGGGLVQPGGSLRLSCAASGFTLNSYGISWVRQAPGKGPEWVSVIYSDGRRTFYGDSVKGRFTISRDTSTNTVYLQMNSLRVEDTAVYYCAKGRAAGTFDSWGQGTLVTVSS
VL: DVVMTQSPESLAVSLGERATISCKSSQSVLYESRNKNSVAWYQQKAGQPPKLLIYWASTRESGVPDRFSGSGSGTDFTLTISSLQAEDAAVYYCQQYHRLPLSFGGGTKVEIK

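Phage display of a naive human antibody library on the peptide gave the parent. Variants in AAYL49 differ from the parent at up to three CDR positions; double and triple changes were sampled at random. The assay is AlphaSeq: two haploid yeast populations carry antibody and antigen on their surface. Mating (16 h, 30 °C) was followed by selection of diploids and sequencing of their barcodes. Read counts were normalised to the haploid input and turned into Kd by a linear fit to BCL2-family pairs of known affinity, for each replicate. Mating was done three times.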

Variants are written as CDR1, CDR2 and CDR3 of the heavy chain (limits as in the source). Parent: GFTLNSYGIS, VIYSDGRRTFYGDSVK, GRAAGTFDS. The read-out is the apparent dissociation constant on a log10 scale (nM): the lower, the stronger. The mean shown is taken over the replicates in which the pair was detected. "nd" means that the variant was in the library but no mating with the target was seen in that replicate; the authors take this as a sign of poor binding, and no number exists.

CDR-H1 | CDR-H2 | CDR-H3 | replicates, log10 nM | mean, log10 nM | control signals
GFPLNSYGIS | VIYSDGRRTFYKDSVK | GRAAWTFDS | 1.49 1.19 1.88 | 1.52 | 0/9
GFTLNAYGIS | VIYSDGRDTFYGDSKK | GRAAGTFDS | nd nd nd | nd | 1/9 (3.47)
GFTLNSAGIS | VIYSMNRRTFYGDSVK | GRAAGTFDS | nd nd 5.38 | 5.38 | 5/9 (4.09)
GFTLNSYPIS | NIYSDGRRTFYGDHVK | GRAAGTFDS | nd 5.37 6.09 | 5.73 | 5/9 (4.62)
GFTLNSYGIS | VISSDGCRTVYGDSVK | GRAAGTFDS | nd nd nd | nd | 1/9 (3.93)
GFTLHSYGIS | VIYSDGRRTYYNDSVK | GRAAGTFDS | 3.84 5.01 nd | 4.43 | 0/9
GFTLNSSGIS | VIYSDGRRTFYGDSVK | GRAASTFKS | nd nd nd | nd | 0/9
GFTLNSYRKS | VIYSDGRRTFSGDSVK | GRAAGTFDS | nd nd nd | nd | 0/9
GFTLNSYGIS | VIYSDGRRTAEGDSVK | GHAAGTFDS | 2.28 nd 2.14 | 2.21 | 0/9
GFTLNSYGIE | VIYIDSRRTFYGDSVK | GRAAGTFDS | 3.81 4.58 nd | 4.19 | 0/9
GFTLNSYGCS | VIYSDGRRTFYGDSVK | GGHAGTFDS | nd nd nd | nd | 2/9 (4.03)
RFTLNMYGIS | VIYSDGRRTFYGDSVK | GRAAGTFDS | 2.82 3.25 3.10 | 3.06 | 0/9
GFTLNSYIIS | VIDSDGRRTDYGDSVK | GRAAGTFDS | nd nd nd | nd | 1/9 (2.88)
GFKLNSYGIS | VIYMDGRRTFYWDSVK | GRAAGTFDS | nd nd nd | nd | 0/9
GFTLNSYGIS | VIYSDVRRTFYGDSVK | GRAVGHFDS | 4.72 nd nd | 4.72 | 1/9 (2.30)
GFTYTSYGIS | VIYSDGRRTFYSDSVK | GRAAGTFDS | 5.02 nd nd | 5.02 | 3/9 (4.31)
GETLNSYGTS | VIYSDYRRTFYGDSVK | GRAAGTFDS | 5.22 4.40 5.03 | 4.89 | 6/9 (4.74)
GFTLCSYGIS | VIYSDGDRTFYGDLVK | GRAAGTFDS | 3.72 3.29 nd | 3.51 | 0/9
GFTLNSYTII | VIYSDGRDTFYGDSVK | GRAAGTFDS | 5.60 3.89 nd | 4.75 | 4/9 (4.53)
EFTLNSYGIS | VINSDGRRTFYGDSVK | GRAAGTFSS | 2.84 nd nd | 2.84 | 1/9 (2.71)
GFTLNSYGIS | VIYSDGLRTFYGDSVK | GRAAGIFDS | nd nd nd | nd | 0/9
GFTLNSYGIS | VIYSDGRRTFYKNSVK | GRAMGTFDS | 1.96 2.07 2.53 | 2.19 | 2/9 (3.98)
GFTLNLYGIS | VIYSDGRFTFYWDSVK | GRAAGTFDS | nd 4.93 nd | 4.93 | 4/9 (4.55)
GFTLWSYGIS | VCYSDGRRTFDGDSVK | GRAAGTFDS | nd nd nd | nd | 0/9
GFTLNSYGIS | VIYSDCRRTFYGDSVD | GRAVGTFDS | nd nd nd | nd | 1/9 (3.04)
GFTLNSYGIS | VIYSDGRRTFYGDSWK | GRNAGTFDL | 2.80 1.99 2.22 | 2.34 | 2/9 (4.94)
GFTLNSFFIS | VIYSDGRRTFYGDSVA | GRAAGTFDS | nd nd 5.51 | 5.51 | 0/9
GFTLNSYGIS | VIYSDGWRTFYGDSVK | GRAAMTFYS | nd nd nd | nd | 0/9
GFTLNSYGIS | VIYSDSRFTFFGDSVK | GRAAGTFDS | 4.15 3.75 nd | 3.95 | 3/9 (3.51)
GFTLNGYGIS | VIYSDGRRTDYGDSVK | GRAAGTFDD | nd nd nd | nd | 4/9 (3.39)
GFTLNSYGIS | VIYSDGRRTDYGDSVK | GLQAGTFDS | 3.76 2.07 2.51 | 2.78 | 1/9 (3.07)
GFTKNSYGIS | VIYSLGRRTNYGDSVK | GRAAGTFDS | nd nd nd | nd | 0/9
GFTLNSYGMS | VIYSDGRRTFYGDSVK | GRCHGTFDS | nd nd nd | nd | 0/9
GFTLNSYGIS | VIYKDGRRTFYGDSVK | GRAAGTFDS | nd nd 4.30 | 4.30 | 0/9
GFTLNSYGIS | VIYYDGRRTFYGDSEK | GRPAGTFDS | nd 3.78 nd | 3.78 | 0/9
GATLNSYGIS | VIYSDGRRTQYGDSVK | GRAAGTVDS | 5.56 4.85 nd | 5.20 | 5/9 (3.85)
GSTLNSYWIS | VIYSDGRRTFYGDSVK | GRYAGTFDS | nd nd nd | nd | 0/9
GFTLNAYGIS | VIYSDGRRTFGGDSVK | GRAAMTFDS | nd nd nd | nd | 0/9
GFTLSSYGIS | VIYSDGRRTKPGDSVK | GRAAGTFDS | nd nd nd | nd | 0/9
GFTLNSYGIS | RIYSDGRRTFYGDSVK | GKAAYTFDS | nd nd nd | nd | 0/9
GFTHNSYVIS | VIYSDGRRTFYGDSVK | GRAAGTFDS | nd nd nd | nd | 0/9
GFNLNSYGIS | VKYSDVRRTFYGDSVK | GRAAGTFDS | nd nd nd | nd | 0/9
GFTLNSYGIS | VIYSDGRRTLYGDSVK | GRAAGDFDS | nd nd nd | nd | 1/9 (4.29)
GFTLNSYGKS | HIYSDGRRTFYVDSVK | GRAAGTFDS | nd nd nd | nd | 6/9 (3.93)
GHTLNSYGIS | VIYSDGRRTFYGDSVK | GNAAGTFDS | nd nd 5.58 | 5.58 | 1/9 (4.70)
CFTLNSYTIS | VIYSDGRRTFYGDSVK | TRAAGTFDS | nd 4.60 nd | 4.60 | 5/9 (4.54)
GFTLNSYGIS | VIYSVGRRTFYGDGVK | GRAAGTFDD | nd nd nd | nd | 0/9
GFTLNSYGIS | VIYSDFRRTFYYDSVK | GRAAGTFDS | nd 3.04 nd | 3.04 | 0/9
GFTLEIYGIS | VISSDGRRTFYGDSVK | GRAAGTFDS | 3.61 nd nd | 3.61 | 0/9
GYTLNSYGIS | VIYSDGQETFYGDSVK | GRAAGTFDS | nd 2.73 nd | 2.73 | 5/9 (4.48)

Extract of 7 entries:

CDR-H1 | CDR-H2 | CDR-H3 | replicates, log10 nM | mean, log10 nM | control signals
GFTHNSYVIS | VIYSDGRRTFYGDSVK | GRAAGTFDS | nd nd nd | nd | 0/9
GFPLNSYGIS | VIYSDGRRTFYKDSVK | GRAAWTFDS | 1.49 1.19 1.88 | 1.52 | 0/9
GFTLNGYGIS | VIYSDGRRTDYGDSVK | GRAAGTFDD | nd nd nd | nd | 4/9 (3.39)
GATLNSYGIS | VIYSDGRRTQYGDSVK | GRAAGTVDS | 5.56 4.85 nd | 5.20 | 5/9 (3.85)
EFTLNSYGIS | VINSDGRRTFYGDSVK | GRAAGTFSS | 2.84 nd nd | 2.84 | 1/9 (2.71)
GFTLNSYGIS | VIYSDVRRTFYGDSVK | GRAVGHFDS | 4.72 nd nd | 4.72 | 1/9 (2.30)
GFTLNSYGIS | VIYSDFRRTFYYDSVK | GRAAGTFDS | nd 3.04 nd | 3.04 | 0/9

Empty control strains, which show no peptide, gave a signal in 15% of pairings with library AAYL49; the median was 4.06 and 95% of these signals were weaker than 2.83. No background was subtracted. For each scFv, signals with the empty controls are counted beside the result, with their mean in brackets. In this assay the parent's reference entry averaged 0.65; its copy inside this library read 4.11 (one replicate of three).

Values reported by Engelhart et al. 2022, doi:10.1038/s41597-022-01779-4 (FLAb copy).